Legend:
[1] = tested on: Y537S ER mutant MCF-7 xenograft; test: Y537S ER mutant MCF-7 breast cancer model in NSG mice; assay type: in vivo, mouse; conditions: for Tumor response Regression / Tumor response ΔT/ΔC: Day 70; for Tumor response in words: LSZ102 20 and 80 mg/kg daily, fulvestrant 5 mg/mouse weekly
[2] = target: ERα Y537S mutant (Homo sapiens, UniProt P03372, Y537S); conditions: MCF-7 Y537S mutant cells, 24 hr treatment
[3] = tested on: ER target genes GREB1 and PGR; conditions: MCF-7 Y537S mutant cells, qRT-PCR

Sequences of proteins named here, by UniProt entry; tags and fusion partners are left off.
UniProt P03372, whole entry Y537S: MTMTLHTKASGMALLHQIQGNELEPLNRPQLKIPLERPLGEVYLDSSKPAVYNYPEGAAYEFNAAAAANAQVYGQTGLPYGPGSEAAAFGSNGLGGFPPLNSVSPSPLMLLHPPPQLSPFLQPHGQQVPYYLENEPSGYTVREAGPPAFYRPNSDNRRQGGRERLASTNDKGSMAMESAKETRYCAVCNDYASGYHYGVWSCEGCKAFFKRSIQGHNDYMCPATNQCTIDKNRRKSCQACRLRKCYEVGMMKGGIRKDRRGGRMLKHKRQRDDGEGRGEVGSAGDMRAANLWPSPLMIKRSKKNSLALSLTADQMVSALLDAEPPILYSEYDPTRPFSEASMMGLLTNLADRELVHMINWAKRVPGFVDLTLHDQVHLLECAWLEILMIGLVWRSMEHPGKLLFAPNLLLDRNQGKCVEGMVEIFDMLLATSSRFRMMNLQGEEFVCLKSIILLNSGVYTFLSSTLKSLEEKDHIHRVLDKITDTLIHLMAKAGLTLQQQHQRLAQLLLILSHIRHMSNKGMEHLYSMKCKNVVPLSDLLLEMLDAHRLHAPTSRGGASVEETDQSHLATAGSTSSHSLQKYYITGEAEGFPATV

SMILES	Tumor response Regression ([1]; 5 mg/mouse SC QWeek)	Tumor response ΔT/ΔC ([1]; 5 mg/mouse SC QWeek) [%]	Tumor response in words [1]	ER protein levels (immunoblot) [2]	Tumor response Regression ([1]; 20 mg/kg QD PO) [%]	Tumor response ΔT/ΔC ([1]; 20 mg/kg QD PO) [%]	Tumor response Regression ([1]; 80 mg/kg QD PO) [%]	Tumor response ΔT/ΔC ([1]; 80 mg/kg QD PO) [%]	ESR1 mRNA levels [3]	mRNA expression of GREB1 and PGR [3]
C[C@]12CC[C@@H]3c4ccc(O)cc4C[C@@H](CCCCCCCCC[S+]([O-])CCCC(F)(F)C(F)(F)F)[C@H]3[C@@H]1CC[C@@H]2O (some centres unmarked) [Fulvestrant, reference compound]	none	39.4	did not reach statistically significant efficacy	did not appear to have any effect	–	–	–	–	–	–
CC(F)(F)c1cc(F)ccc1-c1sc2cc(O)ccc2c1Oc1ccc(/C=C/C(=O)O)cc1 [LSZ102, (E)-3-(4-((2-(2-(1,1-difluoroethyl)-4-fluorophenyl)-6-hydroxybenzo[b]thiophen-3-yl)oxy)phenyl)acrylic acid]	–	–	regressed the Y537S ER expressing MCF-7 xenografts	–	17.7	−5.5	46.9	−13.9	not significantly reduced	dose response inhibition
